Test system: veratridine-induced glutamate release from rat spinal cord slices
Experiment: veratridine-induced [3H]-glutamate release from rat spinal cord slices
Conditions: for concentration from which glutamate release is inhibited: rat spinal cord slices, veratridine 40 μM

Row | SMILES | concentration from which glutamate release is inhibited | also measured
1 | CCC(COC(=O)c1cc(OC)c(OC)c(OC)c1)(c1ccccc1)N(C)C.O=C(O)/C=C\C(=O)O (racemic) [Trimebutine, 2-dimethylamino-2-phenylbutyl 3,4,5-trimethoxybenzoate hydrogen maleate] | higher than 60 μM | –
2 | CC[C@@](COC(=O)c1cc(OC)c(OC)c(OC)c1)(c1ccccc1)N(C)C [(S)-trimebutine] | ≥ 3 µM | –
3 | CN1CC[C@]23c4c5ccc(O)c4O[C@H]2[C@@H](O)C=C[C@H]3[C@H]1C5 [Morphine, morphine] | – | activity on glutamate release (up to 100 μM): inactive
4 | CCC(COC(=O)c1cc(OC)c(OC)c(OC)c1)(NC)c1ccccc1 (stereo not shown) [Nor-TMB, N-desmethyl trimebutine] | – | inhibitory effect on glutamate release (at 3, 10 and 30 μM, p<0.01): significant

— patent US20030027835A1 (priority 1999, published 2003)
